Key:
[1] = 60 min dynamic whole-body microPET imaging of 18F-labeled FTPs (bone uptake / defluorination); details: microPET imaging evaluation, n = 3, 0-60 min post-injection
Experimental: Figure 1 Analysis of rapid kinetics and condition scopes of the ^18F-labeling of FTPs. (A) Reaction scheme showing the fluorination of FTPs. (B) Reaction rate constant (k) values that were predicted by density functional calculations at B3LYP/6-311+G* level of theory (at 298 K) and k values that were measured at 298 K. The pseudo-first order initial rate constant (k´) of [^18F]1 (C) and [^18F]2 (E) were determinated from the kinetic curves reflecting the change in ln [1/(1 - RCC)] in DMF at different temperatures. The Ea of [^18F]1 (D) and [^18F]2 (F) were determinated from Arrhenius plots of ln k against 1/T. (G) RCCs of [^18F]1 and [^18F]2 at different time periods from 10 to 300 sec in acetonitrile at RT. RCCs of [^18F]1 (H) and [^18F]2 (I) at different temperatures and water contents (The solvents are mixtures of acetonitrile and water, v/v. “0%” means no additional water is added.) post 30 sec. (J) RCCs of [^18F]1 and [^18F]2 with different precursor loads in acetonitrile post 30 sec at RT. (K) RCCs of [^18F]1 and [^18F]2 in different solvents post 30 sec at RT. (L) The time-bone uptake curves of [^18F]1, [^18F]2, [^18F]3, and [^18F]4 during 0-60 min post-injection. Bone uptake was measured with microPET in healthy mice (n = 3).
9.8 In vivostabilities of 18F-labeled FTPs during dynamic PET imaging […]
at 37 °C and respiration rate was monitored and kept at 40–60 beat per minute (BPM) […]

[2] = in vivo biodistribution of 18F-labeled FTPs at 120 min post injection; details: i.v. tail vein, 2 h post injection, gamma counter
Description: improved after oxidized, and that anions also contribute to its stability.
When the anion was occupied, [ 18F]4 was slowly defluorinated in the body, but this
defluorination seemed to be acceptable, with only 3% increase in bone uptake within
10 Biodistribution studies
The in vivo biodistribution of four 18F-labeled FTPs ([18F]1, [ 18F]2, [ 18F]3 and
[18F]FTP-NHS/ [18F]15) were studied in BALB/c male mice (average weight 20 ± 2.0
g) by injecting a solution (in saline, pH = 7) of each compound (100 μL, 10
μCi/mouse, 0.1-0.2 nmol) into the tail vein of the animals. At 120 min post injection,
the animals were sacrificed and the main organs were removed, weighed, and then
counted by a γ-counter. In reference to a standard of the injected solution, results were
expressed as the percentage of the injected dose per gram of wet tissue or organ (%ID
Figure S49. Comparative biodistribution studies at 120 min post injection of [ 18F]1,
(1 picture or pasted object on this page, not shown here)

[3] = Lipophilicity (Log D), 1-octanol/PBS; type: physicochemical; details: shake-flask, pre-saturated 1-octanol/PBS (0.05 mol L-1, pH = 7.4), 1.11 MBq, shaking 3 min, gamma counter, triplicate, mean ± SD
[4] = In vivo metabolic stabilities of 18F-labeled FTPs (blood and urine, radio-HPLC); details: ICR mice, i.v. 18.50 MBq, blood, 60 minutes after injection
Experimental: 9.6 Enzymatic stabilit ies of 18F-labeled FTPs in vitro
[18F]FTP-Tyr (0.1-0.3 MBq, 10 μL) was dissolved in 50 μL reaction buffer (10.0 mM
Tris-HCl (pH = 8.0)), 5.0 mM MgCl 2, 0.1 M KCl ，0.02% Triton X-100, 1 mM 2-
mercaptoethanol, 0.1mg mL-1 BSA). 5 μL beyoAP alkaline phosphatase was added to
the solution, then incubated at 37 ℃ after 30, 60, 120 min. 50 μL acetonitrile was
added to the mixture, and centrifuged at 16, 543 × g for 8 min. RCPs of the filtrate
was analyzed by radio-HPLC.
Figure S44.Enzymatic stabilities of [ 18F]FTP-Tyr.
9.7 In vivometabolic stabilities of 18F-labeled FTPs
In vivo metabolic stabilities of 18F-labeled FTPs in normal ICR mice were examined.
Normal ICR mice were intravenously injected with [18F]1, [ 18F]2, or [ 18F]3 (18.50
MBq in 100 µL saline), respectively. Each mouse was sacrificed at indicated time
with blood and urine collected. Each blood sample was immediately centrifuged at
10000 rpm for 5 min to obtain the serum. The serum was then treated with acetonitrile
and centrifuged at 10000 rpm for 8 min to provide the supernatant. The supernatant
was collected and passed through a 0.22 µm Millipore filter. Each urine sample was
diluted with 100 µL water and passed through a 0.22 µm millipore filter. RCPs of 18F-
labeled FTPs in all samples were analyzed by radio-HPLC.
[18F]1 and [ 18F]2 have better metabolic stability than [ 18F]3 in vivo, and 80% of them […]

O-(But-3-yn-1-yl) [^18F]phosphorofluoridodithioate
extent of defluorination (bone uptake) [1]: insignificant | bone uptake [2]: 0.9-1.1 %ID g^-1 | Log D [3]: -1.09 ± 0.05 | fraction remaining in the form of the original drug [4]: 80%

O-(but-3-yn-1-yl) [^18F]phosphorofluoridothioate
Log D [3]: -1.77 ± 0.02

O-phenyl [^18F]phosphorofluoridodithioate
extent of defluorination (bone uptake) [1]: insignificant | bone uptake [2]: 0.9-1.1 %ID g^-1 | fraction remaining in the form of the original drug [4]: 80%

— PMC9830440, “Simplified one-pot ^18F-labeling of biomolecules with in situ generated fluorothiophosphate synthons in high molar activity” (Theranostics, 2023)
